{"source": "patent US20250221927A1", "about": "“[…] PREPARATION AND USE THEREOF” (YICHANG HUMANWELL PHARMACEUTICAL CO., LTD., priority 2022, published 2025)", "origin": "cited, not measured here", "tested_on": "5-HT"}
{"smiles": "CN[C@]1(c2ccccc2Cl)CCCCC1=O.Cl", "note": "[Esketamine, (S)-2-(2-chlorophenyl)-2-(methylamino)cyclohexanone hydrochloride]", "values": [{"measurement": "inhibitory effect on 5-HT, as share of L-ketamine", "result": 50, "unit": "%"}]}
